Results: PubChem BioAssay (EPA / NIEHS)
Values joined by “and” are separate entries in the source; they are usually repeats but may differ in a detail not shown here. Equal values may be shown once. The list shows a part of the results, in another mix than the full data. Records with an inconclusive call do not appear. More than one record can exist for a structure, and the calls need not agree. Active and inactive are the calls of the source. The calls were made as follows, unless noted: active = hit-call score of the fitted dose curve at least 0.9, where 1 is the maximum; inactive = score below 0.9.

Legend:
[1] = CCTE_Shafer_MEA_dev_mutual_information_norm: CCTE's Neural Network Formation Assay for Mutual Information Normalization, Shafer Lab (AID 2284091);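 as to AC50: mutual information between electrodes summarised as area under curve across four recording days; potency is for a decrease in mutual information relative to DMSO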
Method in brief: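 Neurons from rat cortex were seeded at 1.5 x 10^5 cells/well onto PEI-coated MEAs in a laminin drop, then exposed to compound from day 0 for twelve days. Network recordings on four days gave mutual information, summarised by AUC relative to DMSO.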

[2] = CCTE_Shafer_MEA_dev_correlation_coefficient_mean: CCTE's Neural Network Formation Assay for Mean Correlation Coefficient, Shafer Lab (AID 2284093);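 as to AC50: well mean pairwise spike train correlation integrated as AUC over recording days 5 to 12; potency fitted for loss of correlation relative to DMSO vehicle wells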
Method in brief: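 Rat cortical cultures, 1.5 x 10^5 cells/well, dosed from day 0 for 12 days. Spontaneous spikes recorded DIV 5/7/9/12; electrode-pair correlation coefficients averaged, AUC taken. Fit in loss direction vs DMSO.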

[3] = UKN2_HCS_IMR90_neural_migration: University of Konstanz (UKN) Leist Lab Neural Crest Cell Migration Assay in human induced IMR90 Pluripotent Stem Cells (UKN2) (AID 2284204); details: actives raise or lower the signal
Method in brief: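 Stopper-exclusion migration (cMINC), human iPSC-derived neural crest cells; N2-S + EGF/FGF; compound added 24 h post-stopper removal, 24 h exposure. Readout: calcein-AM/Hoechst 30 min, HCS fluorescence imaging; bidirectional fitting, DMSO baseline.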

[4] = IUF_NPC1a_proliferation_area_72hr: Leibniz Research Institute for Environmental Medicine (IUF) 72-hour Neural Progenitor Cell Proliferation Area Assay (NPC1a) (AID 2284208)
Method in brief: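 Read-out: increase in sphere area over 72 h by automated phase-contrast imaging, fitted in positive direction versus DMSO baseline. One hNPC sphere (0.25-0.35 mm) per well in EGF/FGF medium; growth-factor withdrawal served as positive control.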

[5] = IUF_NPC1_viability_72hr: Viability Assessment at 72 hours in the Leibniz Research Institute for Environmental Medicine (IUF) Neural Progenitor Cell Proliferation Assay (NPC1) (AID 2284209)
Method in brief: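 Three-day continuous exposure of human neural progenitor spheres under EGF/FGF-driven proliferation; cell viability scored by alamar blue signal versus DMSO.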

[6] = CCTE_Mundy_HCI_Cortical_Synap_Neur_Matur_NeuriteSpotCountPerNeuriteLength: CCTE's Synaptogenesis and Neurite Maturation Assay in rat cortical cells for Neurite Spot Count per Neurite Length, Mundy Lab (AID 2284210)
Method in brief: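 Read-out: synaptophysin puncta counted along MAP2-stained neurites, normalised to neurite length, by automated high-content imaging. Rat cortical cells; AraC DIV 5; chemical dosing DIV 7; termination DIV 12. DMSO baseline.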

[7] = CCTE_Mundy_HCI_Cortical_NOG_NeuriteCount: CCTE's Neurite Outgrowth Assay in rat cortical cells for Neurite Count, Mundy Lab (AID 2284212);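 also: cells fixed about two days after chemical exposure began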
Method in brief: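 Rat cortical primary cells; compound added 2 h post-plating, 1/10 dilution of working solution. Anti-betaIII-tubulin/AF488 ICC; ArrayScan neurite count vs DMSO.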

[8] = CCTE_Mundy_HCI_Cortical_NOG_NeuriteLength: CCTE's Neurite Outgrowth Assay in rat cortical cells for Neurite Length, Mundy Lab (AID 2284213);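 as to AC50: neurites imaged about 48 to 50 h after chemical exposure began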
Method in brief: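 First, rat primary cortical cells were plated and, 2 h later, given test chemical as a 1/10 dilution. Finally, βIII-tubulin immunostaining enabled automated imaging of neurite length.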

[9] = CCTE_Mundy_HCI_Cortical_Synap_Neur_Matur_NeuriteLength: CCTE's Synaptogenesis and Neurite Maturation Assay in rat cortical cells for Neurite Length, Mundy Lab (AID 2284214)
Method in brief: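 DMSO-normalised neurite length, from high-content imaging of anti-MAP2-stained rat cortical cells fixed at DIV 12. Glia were suppressed with AraC (DIV 5) before chemical exposure from DIV 7.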

[10] = CCTE_Mundy_HCI_Cortical_Synap_Neur_Matur_NeuriteSpotCountPerNeuron: CCTE's Synaptogenesis and Neurite Maturation Assay in rat cortical cells for Neurite Spot Count per Neuron Count, Mundy Lab (AID 2284215)
Method in brief: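 Rat primary cortical cells received AraC at DIV 5, then chemicals with a media change at DIV 7, and were fixed at DIV 12. Synaptophysin puncta on MAP2-stained neurites per neuron were counted by high-content imaging, fitted relative to DMSO.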

[11] = CCTE_Mundy_HCI_Cortical_Synap_Neur_Matur_SynapseCount: CCTE's Synaptogenesis and Neurite Maturation Assay in rat cortical cells for Synapse Count, Mundy Lab (AID 2284218)
Method in brief: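 Endpoint: synapses/neuron by HCI (synaptophysin puncta on MAP2-labelled neurites, Hoechst nuclei). Rat primary cortical cells, AraC DIV 5, dosed DIV 7, fixed DIV 12; DMSO negative control.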

[12] = CCTE_Mundy_HCI_hN2_NOG_NeuriteCount: CCTE's Neurite Outgrowth Assay in human hN2 cells for Neurite Count, Mundy Lab (AID 2284219; active = hit-call score of the fitted dose curve at least 0.9, where 1 is the maximum)
Method in brief: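 In this morphology assay, hNP1-derived neurons received test chemical 2 h post-plating and were fixed two days later in warm paraformaldehyde/sucrose containing Hoechst 33342. Neurites, labelled by rabbit anti-βIII-tubulin (1:800) and Alexa Fluor-488 (1:500), were counted automatically.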

[13] = CCTE_Mundy_HCI_hN2_NOG_NeuriteLength: CCTE's Neurite Outgrowth Assay in human hN2 cells for Neurite Length, Mundy Lab (AID 2284220; active = hit-call score of the fitted dose curve at least 0.9, where 1 is the maximum)
Method in brief: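 Read-out is neurite length from high-content imaging of βIII-tubulin/Alexa Fluor-488-labelled neurons, referenced to DMSO controls.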

[14] = CCTE_Mundy_HCI_hN2_NOG_NeuronCount: CCTE's Neurite Outgrowth Assay in human hN2 cells for Neuron Count, Mundy Lab (AID 2284221; active = hit-call score of the fitted dose curve at least 0.9, where 1 is the maximum)
Method in brief: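 Read-out is the number of betaIII-tubulin-positive neurons imaged by automated high-content analysis, with DMSO as negative control.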

[15] = CCTE_Mundy_HCI_Cortical_Synap_Neur_Matur_CellBodySpotCount: CCTE's Synaptogenesis and Neurite Maturation Assay in rat cortical cells for Cell Body Spot Count, Mundy Lab (AID 2284223)
Method in brief: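 Rat primary cortical cultures received AraC at DIV 5 to arrest glia, were dosed with chemical at DIV 7 with media change, and were fixed at DIV 12 (288.33 h). Synaptophysin puncta on MAP2-positive cell bodies per neuron were counted by high-content imaging versus DMSO.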

[16] = BSK_BT_PBMCCytotoxicity: PBMC Cytotoxicity Assessment in the BioMAP Diversity Plus: BT Assay (AID 2284225); details: primary human B cells with PBMC;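 also: PBMC viability measured by Alamar Blue dye reduction fluorescence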
Method in brief: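 Primary human co-culture of B cells and PBMC, pre-dosed 1 h then activated with SEB and TSST-1. Cytotoxicity is taken from Alamar Blue dye reduction, added for 6 h at the end of a 90 h incubation.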

[17] = IUF_NPC1b_proliferation_BrdU_72hr: Leibniz Research Institute for Environmental Medicine (IUF) 72-hour Neural Progenitor Cell Bromodeoxyuridine (BrdU) Proliferation Assay (NPC1b) (AID 2284207)
Method in brief: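 Luminescent BrdU ELISA measured DNA synthesis during the last 16 h of a 72 h exposure of primary human neural progenitor spheres grown with EGF and FGF. Signal was fitted relative to DMSO controls.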

[18] = CCTE_Mundy_HCI_Cortical_Synap_Neur_Matur_BPCount: CCTE's Synaptogenesis and Neurite Maturation Assay in rat cortical cells for Branch Point Count, Mundy Lab (AID 2284211)
Method in brief: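 In this multiplexed morphology assay, cortical cells from rat receive chemicals at DIV 7 and are fixed at DIV 12, then immunostained and imaged; branch points are counted, with DMSO as baseline.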

[19] = CCTE_Mundy_HCI_Cortical_Synap_Neur_Matur_NeuriteCount: CCTE's Synaptogenesis and Neurite Maturation Assay in rat cortical cells for Neurite Count, Mundy Lab (AID 2284222);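 also: exposure from day 7 to day 12 in vitro with readout at day 12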
Method in brief: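 Primary rat cortical cells were plated, treated with AraC at DIV 5, then exposed to chemicals from DIV 7 through DIV 12. After fixation and immunostaining for MAP2 and synaptophysin, imaging quantified neurites, with DMSO as the negative control.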

[20] = CCTE_Mundy_HCI_hNP1_Pro_ResponderAvgInten: CCTE's Proliferation Assay in human neuroprogenitor cells, Mundy Lab (AID 2284224; active = hit-call score of the fitted dose curve at least 0.9, where 1 is the maximum;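 also: human neural progenitor cells hNP1 derived from WA09 embryonic stem cells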)
Method in brief: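 Proliferation read as average intensity of BrdU-positive cells, imaged at 26.25 h post-dosing: chemical exposure started after 40–44 h culture, BrdU during final 4 h, paraformaldehyde fixation. Positive-direction fit relative to DMSO.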

With `CC(C)OP(=S)(OC(C)C)SCCNS(=O)(=O)c1ccccc1` the AC50 [1] was active: 35.9 µM and active: 12.1 µM, the AC50 [2] was active: 78.9 µM and active: 12.5 µM and the AC50 [3] was active: 135 µM. The outcome [4] was “inactive”, the outcome [5] was “inactive” and the AC50 [6] was active: 52 µM. For the same molecule, the outcome [6] was “inactive”, the AC50 [7] was active: 92.6 µM and active: 74.4 µM and the AC50 [8] was active: 86.6 µM and active: 82.2 µM. The AC50 [9] was active: 50 µM and active: 29.9 µM, the AC50 [10] was active: 17.5 µM and the outcome [10] was “inactive”. The AC50 [11] was active: 25.1 µM, the outcome [11] was “inactive” and the AC50 [12] was active: 20.9 µM. The AC50 [13] was active: 17 µM, the AC50 [14] was active: 26.5 µM and the AC50 [15] was active: 52 µM. For the same molecule, the outcome [15] was “inactive”.

For `CN(C(=O)Cc1cccc2occc12)[C@H]1CC[C@@]2(CCCO2)C[C@@H]1N1CCCC1`, the outcome [1] was “inactive” and the outcome [2] was “inactive”.

For `O=[N+]([O-])c1ccc([N+](=O)[O-])cc1`, the AC50 [16] was active: 20.2 µM.

For `O=C(Cl)Oc1ccccc1`, the outcome [16] was “inactive”.

In the case of `CC(C)OP(=O)(OC(C)C)SCCNS(=O)(=O)c1ccccc1`, the outcome [1] is reported as “inactive”, the outcome [2] is reported as “inactive” and the outcome [3] is reported as “inactive”. For the same molecule, the outcome [17] was “inactive”, the outcome [4] was “inactive” and the outcome [5] was “inactive”. The outcome [6] was “inactive”, the outcome [18] was “inactive” and the outcome [7] was “inactive”. The outcome [8] was “inactive”, the outcome [9] was “inactive” and the outcome [10] was “inactive”. For the same molecule, the outcome [11] was “inactive”, the outcome [19] was “inactive” and the outcome [15] was “inactive”. For the same molecule, the outcome [20] was “inactive”.
